Shown are actives, neighbours in structure and some others; about 1.6% of the full set was active somewhere.
PglD inh: inhibitors of Campylobacter jejuni PglD acetyltransferase. hit rate 0.098% among 360,000. inhibition, % at 12.5 µM. AID 602405. purified PglD enzyme, DTNB colorimetric CoA detection; in the data active = inhibition above about 16%, passing the limit was not always enough
Vif imaging: inhibitors of HIV Vif. HEK293T cells, Vif self-association by quenched fluorescence, imaging, 24 h. hit rate 0.35% among 340,000. inhibition, % at 7.49 µM; in the data active = inhibition above about 50%, passing the limit was not always enough
CAL PDZ FP-1: CAL PDZ (human) peptide binding inhibition; inhibition, % at 24.9 µM; AID 602252; hit rate 0.92% among 300,000; Q9HD26; purified CAL PDZ, TMR-peptide fluorescence polarization, 1 h;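 active = mean inhibition of at least 30% with at least half of replicates also reaching 30%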
CAL PDZ FP-2: inhibitors of human CAL PDZ peptide binding; purified CAL PDZ, TMR-peptide fluorescence polarization, 1 h; inhibition, % at 20 µM; hit rate 0.02% among 330,000; AID 504414;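 active = highest replicate inhibition of at least 40%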
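material = purified tagged CAL PDZ domain construct (CerCALP) | compound dosing = 20 µM, one dose | times = 1 h at RT | measured by = fluorescence polarization from S- and P-plane intensities, G-factor corrected | read-out = inhibition from polarization loss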
Yeast UUG start: alters start codon recognition fidelity in yeast; AID 602363; activity score, % at 18.7 µM; 350,000 tested, 0.13% active; S. cerevisiae UUG-firefly luciferase reporter, luminescence/redox ratio;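 active means replicate mean at a twofold rise or more, about +100% in these data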;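 further: firefly luciferase made from a UUG start codon reports start codon fidelity; reporter light over untreated wells divided by growth signal over untreated wells; some hits fall short of that in this replicate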
ARNT TACC3 PPI: disrupts binding between human ARNT and TACC3. Q9Y6A5. AlphaScreen His-ARNT PAS-B/GST-TACC3 binding, luminescence; TACC3 fragment carries E629A point mutation. inhibition, % at 9.99 µM. hit rate 0.66% among 390,000. AID 623870;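 active = mean inhibition of replicates at least 50% and at least half of replicates each reaching 50%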
Numbers stand for hits; - = inactive; . = no result.

SMILES	PglD inh	Vif imaging	CAL PDZ FP-1	CAL PDZ FP-2	Yeast UUG start	ARNT TACC3 PPI
C[C@@H]1CN([C@H](C)CO)C(=O)c2cccc(NC(=O)Nc3ccccc3)c2O[C@@H]1CN(C)Cc1ccc2c(c1)OCO2	.	.	.	.	.	-
Cc1cc2oc(=O)cc(CN3CCOCC3)c2cc1C(C)C	-	-	62.3	-	-	.
CN(C)CC(=O)N1CC[C@@H]2[C@H]1c1cc(Br)ccc1N(C)[C@@H]2CO	-	.	.	.	-	-
COCC(=O)N1CCC(Oc2ccc(C(=O)NCCCn3cccn3)cc2)CC1	-	-	57.9	-	-	-
COCC(=O)N1CCC(Oc2ccc(C(=O)NCc3cnc(C)cn3)cc2)CC1	.	-	56.9	-	.	-
CN(C)S(=O)(=O)c1ccc(NC(=O)COC(=O)C2COc3ccccc3O2)cc1 (stereo not drawn)	-	67.4	-	-	-	-
O=C(COC(=O)C1COc2ccccc2O1)Nc1ccc(Cl)cc1 (stereo not drawn)	-	-	-	-	-	-
c1ccc(-n2c(Cc3cn4ccsc4n3)nnc2N2CCOCC2)cc1	-	-	-	-	-	45.3
COc1ccc(C#Cc2ccc3c(c2)[C@@H]2[C@@H](CCN2C(=O)c2ccncc2)[C@@H](CO)N3C)cc1	-	.	.	.	-	-
O=C(NN=Cc1ccccc1O)C(O)c1ccccc1 (stereo not drawn)	-	-	-	-	-	43.4
COc1cccc(/C=N/NC(=O)C(=O)N2CCCC2)c1O	-	-	-	-	-	67.6
O=C(N/N=C/c1ccccc1F)C(=O)N1CCCCCC1	-	-	-	-	-	-
O=C(N/N=C/c1ccccc1O)C(=O)N1CCCCCC1	-	-	-	-	-	67.0
Cc1noc(C)c1NC(=O)Nc1cccc2c1O[C@@H](CN(C)C(=O)Nc1ccc3c(c1)OCO3)[C@@H](C)CN([C@@H](C)CO)C2=O	-	.	.	.	-	-
Cc1ccc(S(=O)(=O)N(C)C[C@H]2Oc3ccc(NS(=O)(=O)c4cccs4)cc3C(=O)N([C@H](C)CO)C[C@@H]2C)cc1	-	.	.	.	-	-
C[C@H]1CN([C@@H](C)CO)C(=O)Cc2cc(NC(=O)Nc3cccc4ccccc34)ccc2O[C@H]1CN(C)Cc1ccc(C(F)(F)F)cc1	-	.	.	.	-	-
C[C@@H]1CCCCO[C@@H](CN(C)Cc2ccc3c(c2)OCO3)[C@@H](C)CN([C@H](C)CO)C(=O)c2cc(NC(=O)c3ccccc3)ccc2O1	-	.	.	.	-	-
C=CCc1c(C)nc(C)nc1N/N=C/c1ccccc1O	-	.	.	-	-	64.3
CC(C)NC(=O)Nc1cccc2c1O[C@@H](CN(C)C(=O)Nc1ccc(F)cc1)[C@@H](C)CN([C@H](C)CO)C2=O	-	.	.	.	-	-
CCOc1ccc(-c2cc(C(=O)NCCCn3ccnc3)c3cc(Br)ccc3n2)cc1	-	61.3	-	-	-	-
CCOC(=O)c1cc([N+](=O)[O-])sc1N	-	-	61.9	-	-	-
CCOC(=O)c1cc([N+](=O)[O-])sc1NC(=O)CC	-	-	-	-	-	-
C[C@@H]1CN([C@H](C)CO)C(=O)c2cc(C#C[C@@H](C)O)cnc2O[C@H]1CN(C)Cc1cccc(F)c1	-	.	.	.	-	-
CCOC(=O)C1=C(CC)OC(N)=C(C#N)C1c1ccc(OC)c(OC)c1OC (stereo not drawn)	-	-	.	-	-	15.1
O=C(Nc1ccccc1Cl)N1CCN(c2ccc3nnc(-c4ccccc4)n3n2)CC1	-	.	57.0	-	-	-
SMILES	PglD inh	Vif imaging	CAL PDZ FP-1	CAL PDZ FP-2	Yeast UUG start	ARNT TACC3 PPI
O=C(c1ccc(N2CCCC2=O)cc1)N1CCN(c2ccccc2F)CC1	-	-	56.3	-	-	-
O=C(c1ccc(N2CCCC2=O)cc1)N1CCN(c2ccccc2O)CC1	-	-	-	-	-	-
O=C(NCCS(=O)(=O)NC1CCCC1)c1ccc(F)cc1	-	-	-	-	-	-
CC1CCCCC1NS(=O)(=O)CCNC(=O)c1ccccc1 (stereo not drawn)	-	-	34.9	-	-	-
O=C(Nc1ccc(F)cc1)N1C[C@H]2[C@@H](c3ccccc31)[C@@H](CO)N2C(=O)c1ccc(F)cc1	-	.	.	.	-	-
O=C(NCC1CCCCC1)c1cccnc1	-	-	43.4	-	-	-
COc1ccc(Nc2nc3ccccc3n3nnnc23)cc1	-	-	.	-	-	-
COc1cc(Nc2nc3ccccc3n3nnnc23)cc(OC)c1OC	-	50.2	.	-	-	-
CCCNC(=O)C[C@@H]1CC[C@H]2[C@@H](COc3ccc(NC(=O)c4cccc(OC)c4)cc3C(=O)N2C)O1	-	.	.	.	-	-
Cc1cccc(NC(=O)/C(C#N)=C/c2cn(CC(=O)NCc3ccco3)c3ccccc23)c1C	.	72.3	-	-	.	-
O=C(O)c1[nH]c2ccccc2c1C(c1ccccc1)c1c(C(=O)O)[nH]c2ccccc12	-	-	56.4	44.9	-	-
O=C(NCc1ccccn1)c1ccc([N+](=O)[O-])cc1	.	-	-	-	.	.
O=C(Cc1ccc([N+](=O)[O-])cc1)NCc1ccccn1	.	-	75.8	-	.	-
COc1cccc(S(=O)(=O)Nc2ccc3c(c2)C(=O)N(C)C[C@@H](OC)[C@@H](C)CN(C(=O)Cc2cccnc2)[C@@H](C)CO3)c1	-	.	.	.	-	-
CCc1ccc2[nH]c3nc(SCC(=O)NNC(=O)c4ccc(C(C)(C)C)cc4)nnc3c2c1	-	89.5	-	-	-	-
Cc1ccc(C(=O)NNC(=O)CSc2nnc3c(n2)[nH]c2ccc(C)cc23)cc1	.	-	-	-	.	-
COc1cc(-c2cc(NC=O)c3ncc(-c4ccccc4)n3c2)cc(OC)c1OC	-	-	.	.	-	.
COc1cc(-c2cnc3c(NC=O)cc(-c4cccc(NC(C)=O)c4)cn23)cc(OC)c1OC	-	72.7	.	.	-	.
COc1cc(-c2cnc3c(NC=O)cc(-c4ccccc4Cl)cn23)cc(OC)c1OC	-	58.3	.	.	-	.
COc1cc(-c2cnc3c(NC=O)cc(-c4ccccc4)cn23)cc(OC)c1OC	-	74.2	.	.	-	.
Cc1noc(C)c1S(=O)(=O)Nc1ccc2c(c1)CC(=O)N([C@H](C)CO)C[C@@H](C)[C@@H](CN(C)CC1CC1)O2	-	.	.	.	-	-
C[C@@H]1CCCCO[C@@H](CN(C)S(=O)(=O)c2cccs2)[C@@H](C)CN([C@@H](C)CO)C(=O)c2cc(NS(C)(=O)=O)ccc2O1	-	.	.	.	-	-
CCc1nnc(NC(=O)c2sc3nc4cc(C)ccc4cc3c2N)s1	-	169.7	-	-	-	-
CCOC(=O)Cc1csc(NC(=O)c2sc3nc4ccc(C)cc4cc3c2N)n1	-	-	-	-	-	-
OC(c1ccccn1)(c1ccccn1)c1ccccn1	.	-	-	-	.	75.4
O=C(N[C@H]1C=C[C@H](CC(=O)N2CCCCC2)O[C@H]1CO)c1ccccn1	-	.	.	.	-	-
O=c1cc(CN2CCN(Cc3ccccc3)CC2)c2ccc(O)cc2o1	-	-	-	-	-	-
